Earlier results on one compound are cited in paper PMC3602246 (BMC Pharmacology & Toxicology, 2013).

The series relates to MOR. The conditions noted are these: read-out: Ki, affinity binding to the MOR; literature values, one reference per ligand; ref Reference column of Table S1; cited from earlier work.

In the case of `CN(C(=O)Cc1ccc(Cl)c(Cl)c1)[C@H](CN1CCCC1)c1ccccc1` [ICI 199,441], the inhibitory constant (Ki) (in general, a measure of affinity in units of concentration, obtained from inhibition or displacement) was 4.5 µM.
